Values of other authors, collected in patent US12628856B2, “Nutritional composition having lipophilic compounds with improved solubility and bioavailability” (Abbott Laboratories, priority 2013, dated 2026).

Details: Kd Source: Published; read-out: Lutein Kd; cited from earlier work

Substance: HSA: reference protein with published lutein Kd [reference compound]
- Kd: 1690 nM
